Published antibiotic growth screens (doi:10.1038/s41589-023-01349-8)
The other results are listed elsewhere or left out.

Tested on: A. baumannii ATCC 17978
Test: relative growth (fraction of control); higher = less inhibition
Details: 50 µM

Point of comparison: `COc1ccc2c(=O)cc(-c3ccccc3)oc2c1OC`, relative growth 1.16. Against it:
- COc1cc(/C=C/C(=O)N2CCCCCCC2)cc(OC)c1OC — lower, 0.998
- O=C1O[C@@H](CO)[C@H](O)[C@@H](O)[C@@H]1O — the same, 1.16
- COC1O[C@@H]2O[C@]3(C)CC[C@H]4[C@H](C)CC[C@@H]([C@H]1C)[C@@]24OO3 (some centres undefined) — lower, 1.11
- CN/C(=N\C#N)NCCSCc1nc[nH]c1C — lower, 1.1
- C=CC[C@@H](CC(=O)N[C@H](CO)Cc1ccccc1)C(=O)N[C@H](COC(=O)[C@@H](CC=C)Cc1ccc(F)cc1)Cc1c[nH]c2ccccc12 — lower, 1.1
- CC(=O)n1cc([C@H]2C=C(C(=O)N3CCN(C)CC3)O[C@@H](OCc3ccc(CO)cc3)C2)c2ccccc21 — lower, 0.933
- O=C(C[C@@H]1C[C@@H]2c3cc(NC(=O)C4CCOCC4)ccc3O[C@@H]2[C@@H](CO)O1)NCCN1CCCCC1 — lower, 1.02
- O=C(N[C@@H]1CC[C@@H](CCNS(=O)(=O)c2ccccc2)O[C@@H]1CO)c1cnccn1 — lower, 0.984
- NC(=O)NS(=O)(=O)c1ccc(N)cc1 — lower, 1.11
- C[C@@H]1CN([C@@H](C)CO)S(=O)(=O)c2ccc(-c3cccc(C#N)c3)cc2O[C@H]1CN(C)C(=O)c1ccncc1 — lower, 0.993
- N[C@@H](Cc1cc(I)c(Oc2ccc(O)c(I)c2)c(I)c1)C(=O)[O-].[Na+] [LIOTHYRONINE (L- isomer) SODIUM] — higher, 1.56
- COC(=O)[C@H]1CCc2nc[nH]c2C1 — lower, 1.03
- COCC#Cc1ccc2c(c1)O[C@H](CN(C)C(=O)C1CCCCC1)[C@@H](C)CN([C@H](C)CO)S2(=O)=O — lower, 1.02
- NC(CSCSCC(N)C(=O)O)C(=O)O (centres undefined) — lower, 0.959
- OCc1ccc(-c2cccs2)cc1 — lower, 0.932
- O=C(C[C@@H]1CC[C@H]2[C@@H](COC[C@@H](O)CN2C(=O)C2CC2)O1)NCc1ccncc1 — lower, 1.11
- COC(=O)C[C@@H]1CC[C@H]2[C@@H](COC[C@H](O)CN2S(=O)(=O)c2ccccc2C)O1 — lower, 0.991
- Cn1nccc1NC(=O)COCC(=O)O — lower, 0.949
- C[C@H](CO)NS(=O)(=O)c1ccnn1C — lower, 1.14
- COc1ccccc1-c1ccc2c(c1)O[C@H](CN(C)CC1CCOCC1)[C@H](C)CN([C@H](C)CO)S2(=O)=O — lower, 0.921
- COCC#Cc1ccc2c(c1)O[C@@H](CN(C)Cc1ccccc1F)[C@@H](C)CN([C@@H](C)CO)S2(=O)=O — lower, 0.73
- Cc1ccc(S[C@]2(C(=O)NCC(F)(F)F)CC(=O)N(Cc3ccccc3C(F)(F)F)[C@@H]2c2ccc(CO)cc2)cc1 — lower, 0.959
- CC(C)(C)Nc1nc(=O)[nH]c(=O)[nH]1 — lower, 1.05
- CC(C)(C)c1ccc2c(c1)O[C@H](C(=O)N/N=C/c1ccc[nH]1)CO2.CC(C)(C)c1ccc2c(c1)O[C@H](C(=O)N/N=C\c1ccc[nH]1)CO2 — lower, 1.09
- C[C@@H]1CN([C@@H](C)CO)S(=O)(=O)c2ccc(-c3cncnc3)cc2O[C@@H]1CN(C)C(=O)Cc1cccnc1 — lower, 0.903
- CCC(=O)Nc1ccc(C)cc1C — lower, 0.982
- CC(C)NCC(O)c1cc(O)cc(O)c1 (centres undefined) — lower, 0.991
- O=c1nc[nH]c2n[nH]cc12 — lower, 1.05
- O=C(C[C@@H]1CC[C@@H]2[C@H](COC[C@H](O)CN2S(=O)(=O)c2cccc(Cl)c2)O1)NCCCN1CCOCC1 — lower, 0.871
- O=C(C[C@@H]1CC[C@H](NC(=O)CN2CCOCC2)[C@H](CO)O1)NCCc1ccncc1 — higher, 1.22
- COc1ccc(S(=O)(=O)N2C[C@@H](O)COC[C@@H]3O[C@H](CC(=O)NCCCN(C)C)CC[C@H]32)cc1 — lower, 1.11
- O=C(O)CN(CCN(CC(=O)O)CC(=O)O)CCN(CC(=O)O)CC(=O)O — lower, 0.878
- COc1ccc(-c2cc(=O)c3c(OC)c(OC)c(OC)cc3o2)cc1OC — lower, 0.94
- COc1ccc([C@@H]([C@H](Cc2ccccc2)OC(C)=O)N2Cc3c(noc3[C@@H](O)c3ccccc3)[C@@H]2Cc2ccccc2)cc1 — lower, 1.1
- CO[C@H]1CN(C)C(=O)c2cc(NS(C)(=O)=O)ccc2OC[C@H](C)N(C(=O)CN(C)C)C[C@H]1C — lower, 1
- CC(C)NCC(O)COc1cccc2[nH]c3ccccc3c12 (centres undefined) — lower, 0.923
- Cc1n[nH]c(NN2CCOCC2)nc1=O — lower, 1.05
- Cc1noc(C)c1S(=O)(=O)NC(C)C — lower, 0.956
- C[C@H](CO)N1C[C@H](C)[C@H](CN(C)C(=O)Nc2cc(F)ccc2F)Oc2ncc(C#CCN(C)C)cc2C1=O — lower, 1.07
- Cn1cnc([N+](=O)[O-])c1Sc1[nH]cnc2ncnc1-2 — higher, 1.26
- CC[C@@H](CO)NCCN[C@@H](CC)CO.Cl.Cl — lower, 1.12
- CCNC(=O)C[C@H]1CC[C@H]2[C@@H](COC[C@H](O)CN2C(=O)Nc2c(C)noc2C)O1 — lower, 1.09
- CC(C)(C)c1n[nH]c(C(C)(C)C)c1Cc1c(F)cccc1Cl — lower, 0.855
- CC12CCC(=O)C=C1CCC1C2[C@@H](O)CC2(C)C1CC[C@]2(O)C(=O)COP(=O)([O-])[O-].CC[NH+](CC)CC.CC[NH+](CC)CC (some centres undefined) — lower, 0.934
- CCC(CCC(C)[C@H]1CCC2C3CC=C4C[C@@H](O)CC[C@]4(C)C3CC[C@@]21C)C(C)C (stereo partly drawn) [beta-SITOSTEROL] — lower, 0.946
- O=c1ccc(=O)n(-c2ccccc2)[nH]1 — lower, 1.12
- COc1ccc2c(c1)O[C@H]1c3ccc(OC)cc3OC[C@@H]21 — lower, 1.06
- CC(C)(C)c1csc(-c2ccc(-c3cccs3)s2)n1 — lower, 0.975
- COc1cccc(CNC(=O)C[C@@H]2C=C[C@@H](NC(=O)C3CCOCC3)[C@H](CO)O2)c1 — lower, 1.03
- CCCC[C@@H](CC)COC(=O)/C=C/c1ccc(OC)cc1 — higher, 1.18
- OC[C@@H](O)[C@@H](O[C@@H]1O[C@H](CO)[C@@H](O)[C@H](O)[C@H]1O)[C@H](O)[C@@H](O)CO — lower, 0.864
- COc1ccc2nc3cc(Cl)ccc3c(Nc3cc(CN4CCCC4)c(O)c(CN4CCCC4)c3)c2n1.O=P(O)(O)O.O=P(O)(O)O.O=P(O)(O)O.O=P(O)(O)O — lower, 1.15
- COCC#Cc1ccc2c(c1)O[C@H](CN(C)C(=O)C1CCOCC1)[C@@H](C)CN([C@@H](C)CO)S2(=O)=O — lower, 1.09
- COc1ccc([Si](C)(C)[C@H]2[C@H](CCOC(=O)NCCCCCC(=O)NO)O[C@]3(C(=O)N(Cc4ccccc4)c4ccc(NC(=O)[C@@H](C)OC(=O)NCCCCCC(=O)NO)cc43)[C@@H]2C)cc1 — lower, 0.873
- O=C(CCCCC(=O)N/N=C/c1cc(I)cc(I)c1O)NO — lower, 0.585
- CCN(CC)CCNC(=O)c1ccc(NC(C)=O)cc1.Cl — higher, 1.21
- CC(C)[C@H](N)C(=O)O — lower, 1.04
- COc1ccc(-c2cc(=O)c3c(O)cc(OC)cc3o2)cc1 — lower, 1.06
- CC(=O)S[C@@H]1CC2=CC(=O)CC[C@]2(C)[C@H]2CC[C@@]3(C)[C@@H](CC[C@@]34CCC(=O)O4)C12 (some centres undefined) — lower, 1.12
- O=C(CN1CCOCC1)NCC[C@H]1CC[C@@H](NS(=O)(=O)c2ccc(Cl)cc2)[C@H](CO)O1 — lower, 1.06
- O=C(C[C@@H]1C=C[C@H](NC(=O)c2ccc(F)cc2)[C@H](CO)O1)NCc1ccncn1 — lower, 0.955
- O=C(/C=C/C=C/c1ccc2c(c1)OCO2)N1CCCCC1 — lower, 1.03
- Cc1ccc(S(=O)(=O)N[C@H]2C=C[C@@H](CC(=O)NCCN3CCCCC3)O[C@H]2CO)cc1 — lower, 1.09
- C=C(C)/C=C1/C=CC(=O)C(C)=C1 — lower, 0.919
- CN(C)CCNc1cn[nH]c(=O)c1Cl — lower, 0.995
- [N-]=[N+]=Nc1ccccc1[C@H]1OC(c2ccc(OCCCO)cc2)=N[C@@]1(CCS(=O)(=O)c1ccccc1)C(=O)N1CCCCC1 — lower, 1.15
- CCS(=O)(=O)Nc1ccc2c(c1)C(=O)N(C)C[C@H](OC)[C@@H](C)CN(C(=O)c1ccc3c(c1)OCO3)[C@H](C)CO2 — lower, 1.1
- Cc1ccc(-c2ccc3c(c2)O[C@@H](CN(C)C(=O)NC(C)C)[C@H](C)CN([C@@H](C)CO)S3(=O)=O)cc1 — lower, 0.788
- O=C(C[C@@H]1CC[C@@H]2[C@H](COC[C@H](O)CN2C(=O)Nc2cccc(F)c2)O1)NCCCN1CCOCC1 — lower, 0.884
- O=C(O)CCCCC1CCSS1 (centres undefined) — lower, 0.944
- O=c1[nH]cc(Nc2ccccc2)c(=O)[nH]1 — higher, 1.18
- CC(=O)N(C)C[C@H]1Oc2cc(C#CCN(C)C)ccc2S(=O)(=O)N([C@H](C)CO)C[C@H]1C — lower, 1
- CN1CCN(C(=O)C[C@@H]2CC[C@H](NC(=O)Cc3ccccn3)[C@@H](CO)O2)CC1 — lower, 1.05
- O=C(C[C@@H]1CC[C@H]2[C@@H](COC[C@H](O)CN2S(=O)(=O)c2ccccc2F)O1)NCc1ccccc1Cl — lower, 0.846
- C[C@@H]1COC(=O)N1 — lower, 1.04
- CCN(CC)S(=O)(=O)c1ccc(C(=O)O)cc1 — lower, 1.05
- CCOc1ccc(NC(=O)CC(C)O)cc1 (centres undefined) — lower, 0.888
- O=c1[nH]cc(/N=C/c2ccncc2)c(=O)[nH]1 — lower, 1.13
- Cc1cc(-c2ccccc2)nc(-c2ccccc2)c1C — lower, 0.861
- CN(C)C(=O)C[C@@H]1C=C[C@@H](NC(=O)C2CC2)[C@@H](CO)O1 — lower, 1.01
- O=C(NO)c1cccc(C(=O)N/N=C/c2cc(I)cc(I)c2O)c1 — lower, 0.699
- CO[C@H]1CN(C)C(=O)c2cc(NS(=O)(=O)CC(F)(F)F)ccc2OC[C@H](C)N(Cc2cccnc2)C[C@H]1C — lower, 0.92
- CCCCc1nc(Cl)c(CO)n1Cc1ccc(-c2ccccc2-c2nnn[nH]2)cc1 — lower, 0.986
- C=CCCCCCCCCC(=O)O — lower, 1.04
- COCCc1nc2c([nH]1)c(=O)n(C)c(=O)n2C — lower, 1.02
- COc1ccc([Si](C)(C)[C@H]2[C@H](CCn3cc([C@H](O)c4ccccc4)nn3)O[C@@]3(C(=O)N(c4ccccc4)c4ccccc43)[C@@H]2C)cc1 — higher, 1.18
- O=c1occ(CO)c(O)c1CN1CCCCC1 — lower, 1.01
- COCc1cn(CC[C@H]2CC[C@@H](NC(=O)CCN3CCCCC3)[C@H](CO)O2)nn1 — lower, 0.998
